Data reported in patent publication US12637487B2, “Combination product comprising dicycloplatin and preparation method and use thereof” (priority 2017, dated 2026).

Tested on: Hepatitis C virus (HCV type 2a, JFH1-Luc virus strain)
Conditions: Huh7.5.1 cells

Dicycloplatin [MD36792]
selection index SI (SI=CC50/EC50): 1.54
